From patent US9612237B2, “Ritalinic acid immunoassay” (Randox Laboratories Limited, priority 2013, dated 2017)
Some compounds may have been tested in ways that are not shown here.

System: antisera generated in response to immunogen of Example 11
Test: Competitive chemiluminescent biochip immunoassay, antisera raised against immunogen of Example 11, conjugate of Example 12
Assay type: binding, sheep
Settings: value is the concentration at which no cross-reactivity was exhibited

For CCC(=O)N(c1ccccc1)C1CCN(CCc2ccccc2)CC1, the “Concentration exhibiting no cross-reactivity” value was 10 µg/mL.
